Assay results: patent publication US20100144729A1, “COUMARIN DERIVATIVES” (priority 2007, published 2010)

By UniProt entry, the sequences of proteins in these tests, tags left out.
UniProt P21453, whole entry: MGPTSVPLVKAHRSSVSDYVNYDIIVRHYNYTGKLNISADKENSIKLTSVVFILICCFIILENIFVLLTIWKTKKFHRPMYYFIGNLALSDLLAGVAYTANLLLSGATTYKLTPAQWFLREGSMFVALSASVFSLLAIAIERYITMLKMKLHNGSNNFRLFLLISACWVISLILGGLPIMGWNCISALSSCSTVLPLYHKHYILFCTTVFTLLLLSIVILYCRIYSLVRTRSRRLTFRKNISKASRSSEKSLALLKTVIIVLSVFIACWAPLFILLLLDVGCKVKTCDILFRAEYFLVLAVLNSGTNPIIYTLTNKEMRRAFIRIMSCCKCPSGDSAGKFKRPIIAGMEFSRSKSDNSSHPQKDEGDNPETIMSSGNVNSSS

Biological target: S1P1 (EDG-1) (Homo sapiens, UniProt P21453)
Experiment: GPCR activation assay measuring GTP [γ-35S] binding to membranes from CHO cells expressing human EDG receptors (S1P1)
Details: read-out: S1P-1 EC50, CHO cell membranes expressing human EDG-1
Experimental: A.1 In Vitro: GPCR Activation Assay Measuring GTP [γ-^35S] Binding to Membranes Prepared From CHO Cells Expressing Human EDG Receptors
S1P1 (EDG-1) GTP [γ-^35S] binding assay: Homogenized membranes are prepared from CHO cell clones stably expressing a human EDG-1 N-terminal c-myc tag. Cells are grown in suspension in two 850 cm^2 roller bottles for three or fours days before harvesting. The cells are centrifuged down, washed once with cold PBS, and resuspended in ≦20 ml of Buffer A (20 mM HEPES, pH 7.4, 10 mM EDTA, EDTA-free complete protease inhibitor cocktail [1 tablet/25 ml]). The cell suspension is homogenized on ice, using a Polytron homogenizer at 30000 rpm at three intervals of 15 seconds each. The homogenate is first centrifuged at 2000 rpm on a tabletop low speed centrifuge for 10 minutes. The supernatant, after passing through a cell strainer, is then re-centrifuged at 50,000×g for 25 minutes at 4° C. The pellet is resuspended into buffer B (15% glycerol, 20 mM HEPES, pH 7.4, 0.1 mM EDTA, EDTA-free complete protease inhibitor cocktail [1 tablet/10 ml]). Protein concentration of the preparation is determined using the BCA Protein Assay kit (Pierce) using BSA as standard. The membranes are aliquoted and kept frozen at −80° C.
Solutions of test compounds ranging from 10 mM to 0.01 nM are prepared in DMSO. S1P is diluted in 4% BSA solution as positive controls. […]

CCCc1c(OC)ccc2cc(C(=O)Nc3ccc(C4CCCN4)cc3)c(=O)oc12 (stereo not shown) [Example 1, 7-Methoxy-2-oxo-8-propyl-2H-chromene-3-carboxylic acid (4-pyrrolidin-2-yl-phenyl)-amide]
EC50: 1.6 nM
